This experiment concerns the target T1, CALC/RAMP receptor (Homo sapiens, UniProt O60896+P30988).
T1 construct: host or cells: HEK-293
T1 sequence (P30988 25-474): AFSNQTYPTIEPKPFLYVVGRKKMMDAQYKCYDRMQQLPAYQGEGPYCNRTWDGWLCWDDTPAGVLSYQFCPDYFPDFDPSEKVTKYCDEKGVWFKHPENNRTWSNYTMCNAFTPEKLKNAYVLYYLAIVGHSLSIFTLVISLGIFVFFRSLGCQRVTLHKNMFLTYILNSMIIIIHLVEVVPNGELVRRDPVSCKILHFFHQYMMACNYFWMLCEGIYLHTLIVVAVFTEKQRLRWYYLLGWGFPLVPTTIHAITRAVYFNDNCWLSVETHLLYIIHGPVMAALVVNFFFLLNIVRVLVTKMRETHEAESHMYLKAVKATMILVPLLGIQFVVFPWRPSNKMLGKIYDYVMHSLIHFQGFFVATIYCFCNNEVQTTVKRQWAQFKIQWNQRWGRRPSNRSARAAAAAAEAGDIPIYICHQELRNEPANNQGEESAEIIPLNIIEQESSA
T1 sequence (O60896 24-148 partner): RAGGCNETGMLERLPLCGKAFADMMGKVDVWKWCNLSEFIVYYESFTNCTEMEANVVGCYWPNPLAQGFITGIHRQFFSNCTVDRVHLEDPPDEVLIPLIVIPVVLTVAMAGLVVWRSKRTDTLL
Briefly: Cell-based pramlintide activity assay (HEK-293 with pCALCR, pRAMP3, pCK53). Particulars: conditioned medium of pKR135/pKR146-transgenic HT-1080, SEAP reporter, 48 h, FIG. 9b. How it is done:
(b) Validation of functional pramlintide production. The culture supernatant of pKR135/pKR146-transgenic pramlintide-producing HT-1080 cultivated for 48 h in the presence of 100 μM linoleic acid was mixed at different percentages with DMEM and used to cultivate HEK-293 (co-)transfected with expression vectors encoding the pramlintide-specific receptors pCALCR, pRAMP3 and the corresponding reporter unit (pCK53; PCRE-SEAP-pA). Pramlintide-triggered SEAP expression was profiled after 48 h. medPcond (%)=pramlintide-containing conditioned medium, % pramlintide.
In vitro activity of pramlintide was measured by (co-)transfecting HT-1080 with pKR135/pKR146 or pJWS17 (6 μg DNA, 800,000 cells, 10 cm Petri dish). […] Alternatively, pramlintide was quantified using the human amylin EIA ELISA kit (Phoenix Pharmaceuticals, Burlingame, USA) and pure pramlintide as standard (Feldan, Quebec, Canada). For quantification of pramlintide in mouse serum samples, 96-well plates were coated with 5 μg/mL (100 μL/well) rabbit polyclonal anti-human amylin (Amylin H-50, Santa Cruz Biotechnology, Santa Cruz, USA; cat. no. sc-20936, lot. no. 10303) in dilution buffer (PBS, 0.5% BSA, 0.01% Tween80, pH7.4) at 4° C. overnight. […] Reactions were stopped by addition of 2 M sulfuric acid (100 μL/well) and pramlintide was quantified at 450 nm using an Envision plate reader.

Here are results for 1 compound from patent publication US10415054B2, “Designer circuit controlling diet-induced obesity” (ETH ZURICH, priority 2013, dated 2019).

Take `CC[C@H](C)[C@H](NC(=O)[C@@H]1CCCN1C(=O)CNC(=O)[C@H](Cc1ccccc1)NC(=O)[C@H](CC(N)=O)NC(=O)[C@H](CC(N)=O)NC(=O)[C@H](CO)NC(=O)[C@H](CO)NC(=O)[C@H](Cc1c[nH]cn1)NC(=O)[C@@H](NC(=O)[C@H](CC(C)C)NC(=O)[C@H](Cc1ccccc1)NC(=O)[C@H](CC(N)=O)NC(=O)[C@H](C)NC(=O)[C@H](CC(C)C)NC(=O)[C@H](CCCNC(=N)N)NC(=O)[C@H](CCC(N)=O)NC(=O)[C@@H](NC(=O)[C@H](C)NC(=O)[C@@H]1CSSC[C@H](NC(=O)[C@@H](N)CCCCN)C(=O)N[C@@H](CC(N)=O)C(=O)N[C@@H]([C@@H](C)O)C(=O)N[C@@H](C)C(=O)N[C@@H]([C@@H](C)O)C(=O)N1)[C@@H](C)O)C(C)C)C(=O)N[C@@H](CC(C)C)C(=O)N1CCC[C@H]1C(=O)N1CCC[C@H]1C(=O)N[C@H](C(=O)N[C@@H](CC(N)=O)C(=O)N[C@H](C(=O)NCC(=O)N[C@@H](CO)C(=O)N[C@@H](CC(N)=O)C(=O)N[C@H](C(=O)N[C@@H](Cc1ccc(O)cc1)C(N)=O)[C@@H](C)O)C(C)C)[C@@H](C)O` [pramlintide]: the “capacity to activate target receptor and signaling cascades” value is given as “activate its target CALC/RAMP receptor”.
